Results published in ChEMBL document CHEMBL3352063, “Transition state mimetics of the Plasmodium export element are potent inhibitors of Plasmepsin V from P. falciparum and P. vivax” (J Med Chem, 2014).

Assay: Selectivity ratio of IC50 for human Cathepsin D to IC50 for Plasmodium falciparum plasmepsin V

SMILES: CC(C)C[C@H](NC(=O)[C@@H](NC(=O)[C@H](CCCNC(=N)N)NS(=O)(=O)Cc1ccccc1)C(C)C)[C@@H](O)CC(=O)NCCc1ccccc1
- Ratio IC50: 1300
